Assays:
[1] = tested on: tumor cells isolated from Math1-Cre/Ptch1^C/C animals (MB cells); experiment: Tumor cell proliferation in vitro by Ki67 immunostaining; format: cell-based, mouse; conditions: 48 hrs; 5 μM MK886, 3 μg/ml cyclopamine, 10 μM NDGA, 20 μM Zileuton, 50 μM Montelukast, 50 μM Zafirlukast (FIG. 6)
[2] = tested on: wildtype GNPs (normal granule neuron precursors); conditions: 48 hrs; 20 ng/ml recombinant Shh added; 5 μM MK886, 3 μg/ml cyclopamine, 10 μM NDGA, 20 μM Zileuton, 50 μM Montelukast, 50 μM Zafirlukast (FIG. 6)

## CC1=C2C[C@H]3[C@@H](CC=C4C[C@@H](O)CC[C@@]43C)[C@@H]2CC[C@]12O[C@@H]1C[C@H](C)CN[C@H]1[C@H]2C [cyclopamine]
[1]
  tumor cell proliferation (Ki67): dramatically prevented the proliferation
[2]
  GNP proliferation (Ki67): dramatically prevented the proliferation

Source: patent US9616056B2, “Inhibition of leukotriene synthesis and activity in the treatment of sonic hedgehog-associated medulloblastoma” (Institute for Cancer Research, priority 2013, dated 2017)
